The subject of series [1] is MDCK cells. The following applies: dog.
For series [2] the following is noted: rat, in vivo; for AUC0→t / AUC0→∞ / MRT / k: male, Sprague-Dawley.
For series [3] the following is noted: female, Crl:CD1 (ICR), mouse, in vivo.
The nature of series [4]: in vivo. The following applies: rat, iv.
For series [5] the following is noted: rat, in vivo.
The nature of series [6]: in vivo. The following applies: dog, iv.
In series [7] the test system is influenza A/CA/04/2009 (H1N1) virus. The following applies: mouse, in vivo, po.
The conditions of series [8]: dog, in vivo.
Series [9] can be described thus: in vitro. The following applies: human, rat, dog, plasma, pH 7.4.
The nature of series [10]: in vivo. The note with it: male, Sprague-Dawley, rat, po, 5 mg/kg.
The nature of series [11]: physchem. The note with it: water.
For series [12] the following is noted: male, mouse, in vivo, po, 10 mg/kg.

SMILES strings stand for the structures. Like-named read-outs stand apart in the source and are kept apart here.

The MRT is the average time that molecules of a dose stay in the body. Broadly, the clearance is the volume of plasma or blood freed of the substance per unit of time. As a reminder, the fraction unbound is the share of the substance not bound to proteins or other matrix. Lower therefore signals extensive binding. By Tmax is commonly meant the time from dosing to the highest level. As usually defined, the solubility is the concentration that dissolves in the medium under given conditions. Higher therefore signals a readily soluble substance.

Consider `CCOP(=O)(O)C1=C[C@@H](OC(CC)CC)[C@H](NC(C)=O)[C@@H](N)C1`, for which the “nontoxic concentration to MDCK cells (highest testing concentration)” value (“nontoxic concentration to MDCK cells” below) in series [1] is on record as over 100 µM. In addition, in series [2] (iv, 1 mg/kg), the AUC0→t was 1267 ± 336 ng·h/mL, the “AUC0→∞” value stood at 1286 ± 344 ng·h/mL, the MRT worked out at 1.44 ± 0.79 h and the k worked out at 0.428 ± 0.138 h⁻¹. Further, the “plasma concentrations after oral administration” value in series [2] (po) is on record as “below the detection limit”. Also, the “dose at which mortality occurred” value in [3] (ip) is reported as 2000 mg/kg.

With `CCOP(=O)(O)C1=C[C@@H](OC(CC)CC)[C@H](NC(C)=O)[C@@H](NC(=N)N)C1`, the clearance in series [4] is 10.7 mL/min/kg; in series [6], 3.4 mL/min/kg. For the same molecule, the AUC0→t in series [5] (iv, 2 mg/kg) was determined as 3168 ± 492 ng·h/mL; in series [8] (iv, 5 mg/kg), 24516 ± 1918 ng·h/mL; in series [8] (po, 20 mg/kg) it was 11019 ± 2975 ng·h/mL; in series [2] (iv, 0.3 mg/kg), 389 ± 35 ng·h/mL; in series [2] (po, 5 mg/kg), 69.6 ± 10.2 ng·h/mL. In addition, the “AUC0→∞” value worked out at 3170 ± 492 ng·h/mL in [5] (iv, 2 mg/kg); 24641 ± 1936 ng·h/mL in series [8] (iv, 5 mg/kg); 11561 ± 3210 ng·h/mL in series [8] (po, 20 mg/kg); 390 ± 36 ng·h/mL in [2] (iv, 0.3 mg/kg); 77.9 ± 10.3 ng·h/mL in series [2] (po, 5 mg/kg). Also, the MRT turned out to be 0.5 ± 0.03 h in [5] (iv, 2 mg/kg); 5.6 ± 0.23 h in [5] (po, 50 mg/kg); 1.52 ± 0.139 h in series [8] (iv, 5 mg/kg); 5.12 ± 0.694 h in series [8] (po, 20 mg/kg); 0.53 ± 0.03 h in series [2] (iv, 0.3 mg/kg); 2.05 ± 0.27 h in series [2] (po, 5 mg/kg). The k in series [5] (iv, 2 mg/kg) is 0.16 ± 0.01 h⁻¹; in [5] (po, 50 mg/kg), 0.31 ± 0.01 h⁻¹; in series [8] (iv, 5 mg/kg) it was 0.13 ± 0.03 h⁻¹; in series [8] (po, 20 mg/kg), 0.13 ± 0.03 h⁻¹; in series [2] (iv, 0.3 mg/kg), 1.285 ± 0.037 h⁻¹; in series [2] (po, 5 mg/kg), 0.669 ± 0.126 h⁻¹. The “survival vs control group” value in [7] (1 mg/kg/day) and in [7] (10 mg/kg/day) was “significantly different from the control group” in each case. In series [9], this molecule yielded a fraction unbound of 0.86 to 0.91. Besides, in series [10], the Tmax is 1.38 ± 0.59 h.

Consider `CCC(CC)O[C@@H]1C=C(P(=O)(O)O)C[C@H](N)[C@H]1NC(C)=O` [3a, tamiphosphor], for which the “nontoxic concentration to MDCK cells” value in series [1] is given as over 100 µM. In series [2] (iv, 1 mg/kg), the AUC0→t came out at 2620 ± 671 ng·h/mL, the “AUC0→∞” value is 2634 ± 672 ng·h/mL, the MRT was found to be 1.47 ± 0.25 h and the k stood at 0.213 ± 0.041 h⁻¹. Besides, in [2] (po, 1 mg/kg), the AUC0→t was 51.04 ± 28.95 ng·h/mL, the “AUC0→∞” value amounted to 55.69 ± 25.51 ng·h/mL, the mean residence time (MRT) is 4.40 ± 0.64 h and the k was found to be 0.265 ± 0.127 h⁻¹. For the same molecule, the “dose at which mortality occurred” value in [3] (iv) is on record as “above 750 mg/kg”. Also, the solubility in series [11] is at most 50 mg/mL.

For `CCC(CC)O[C@@H]1C=C(P(=O)(O)O)C[C@H](NC(=N)N)[C@H]1NC(C)=O` [4a, guanidino-tamiphosphor], the AUC0→t in series [12] worked out at 939 ± 346 ng·h/mL; in [2] (iv, 0.5 mg/kg), 666 ± 171 ng·h/mL; in series [2] (po, 3 mg/kg), 116.7 ± 54.5 ng·h/mL. The “AUC0→∞” value in [12] was determined as 1050 ± 355 ng·h/mL; in series [2] (iv, 0.5 mg/kg) it was 669 ± 173 ng·h/mL; in series [2] (po, 3 mg/kg) it was 128.4 ± 59.4 ng·h/mL. Further, the MRT in [12] is 3.61 ± 0.81 h; in series [2] (iv, 0.5 mg/kg) it was 0.66 ± 0.06 h; in series [2] (po, 3 mg/kg), 2.40 ± 0.57 h. Moreover, the k in series [12] stood at 0.300 ± 0.073 h⁻¹; in series [2] (po, 3 mg/kg), 0.485 ± 0.090 h⁻¹. Also, the “nontoxic concentration to MDCK cells” value in series [1] is reported as over 100 µM. Besides, the “survival vs control group” value in series [7] (1 mg/kg/day) and in [7] (10 mg/kg/day) was “significantly different from the control group” each time.

The record behind these values is PMC3492761 (Journal of medicinal chemistry, 2012).
